# Laboratory results from patent publication US20110135603A1, “INHIBITORS OF PHOSPHATIDYLINOSITOL 3-KINASE” (VERTEX PHARMACEUTICALS INCORPORATED, priority 2008, published 2011).
# Assay: Evaluation of Brain/Plasma Concentrations
# Settings: Sprague-Dawley rats
# Experimental: Selected compounds of the invention were evaluated for their ability to cross the blood-brain barrier. Accordingly, a compound of the invention was administered to Sprague-Dawley rats [10 mg/kg as a 1 mg/mL 0.5% MC solution] via oral intragastric delivery. Two hours after compound administration, the rats were anaesthetized by intramuscular administration of a 2 mL/kg Ketamine/Rompun/Acepromazine cocktail and placed onto necropsy table. The abdominal cavity was then opened with a V-cut and 300 microliters of blood was drawn directly from left ventricle for plasma concentration analysis. The blood sample was stored on ice in a 1.5 mL Eppendorf tube (containing K2EDTA) and subsequently centrifuged for 2 minutes at 2000 rpm. After centrifugation, 110 microliters of plasma was transferred to a fresh tube and stored at −70° C. until analysis. The rat was perfused with cold saline (containing 50 IU of heparin) at 20 mL/min from an infusion pump through the left ventricle of the heart. Immediately after starting the perfusion, a small cut in the right atria was made so that heparinized saline would flow through the body. The perfusion was continued until the liver appeared pale in color (about 60 mL of cold saline). The brain was removed and placed on ice, blotted dry, weighed, placed in a tube, frozen with liquid nitrogen, and stored at −70° C. until further analysis was performed.
# In order to determine compound concentration in the plasma, the blood sample was prepared by protein precipitation with addition of acetonitrile at a ratio of 1:4. After vortexing and centrifugation, the supernatant was analyzed by high performance liquid chromatography-tandem mass spectrometry in positive Atmospheric Pressure Chemical Ionization (APCI) ionization mode. […] The calibration curve was analyzed and the instrument response (area counts for compound of interest/Area Counts for internal Standard) are used to generate a calibration curve. The instrument response for study samples were compared to the calibration curve and the concentration back-calculated from the curve. […]
structure (smiles),measurement,setting,value
CCCOCCNC(=O)Nc1nc2ccc(-c3cncc(C(F)(F)F)c3)cc2s1,Brain Conc.,"10 mg/kg oral intragastric in 0.5% MC, two hours after administration, average of two or three animals",169 ng/g
same,Plasma Conc.,"10 mg/kg oral intragastric in 0.5% MC, two hours after administration, based on a density of rat plasma of 1.0 g/mL",390 ng/mL
same,Brain/Plasma Ratio,"10 mg/kg oral, two hours, average brain/plasma ratio based on data obtained for each animal",0.4
